Reference: US20150150960A1, “PROTECTION AGAINST DENGUE VIRUS AND PREVENTION OF SEVERE DENGUE DISEASE” (priority 2010, published 2015)
Like-named read-outs stand apart in the source and are kept apart here.

Test system: PBMC of DENV seropositive human donors
Assay type: cell-based
Conditions: ex vivo IFNγ ELISPOT
[1] = allele B*3501, Sri Lankan donors
[2] = allele B*0702, Sri Lankan donors
[3] = allele B*4001, Sri Lankan donors
[4] = allele A*1101, Sri Lankan donors
[5] = allele A*0201, Sri Lankan donors

CSCC[C@H](NC(=O)[C@H](Cc1ccc(O)cc1)NC(=O)[C@@H]1CCCN1C(=O)[C@H](CC(N)=O)NC(=O)[C@H](CC(C)C)NC(=O)[C@@H](NC(=O)[C@@H](N)CCCCN)C(C)C)C(=O)N1CCC[C@H]1C(=O)N[C@@H](CO)C(=O)N[C@H](C(=O)O)C(C)C
T cell response [SFC] (human donors, allele A*0201): 48 SFC

CC[C@H](C)[C@H](N)C(=O)N[C@@H](C)C(=O)N[C@H](C(=O)N[C@@H](CO)C(=O)N[C@@H](CCSC)C(=O)N[C@@H](C)C(=O)N[C@@H](CC(N)=O)C(=O)N[C@H](C(=O)N[C@@H](Cc1ccccc1)C(=O)O)[C@@H](C)CC)C(C)C
T cell response [SFC] [1]: 118 SFC
T cell response [SFC] (allele B*5801, Sri Lankan donors): 108 SFC

CC[C@H](C)[C@H](NC(=O)[C@H](Cc1ccccc1)NC(=O)[C@H](C)NC(=O)[C@H](CCSC)NC(=O)[C@@H](NC(=O)[C@H](CC(C)C)NC(=O)[C@H](CCCCN)NC(=O)[C@H](CCSC)NC(=O)[C@@H]1CCCN1C(=O)CN)C(C)C)C(=O)O
T cell response [SFC] [2]: 62 SFC

CSCC[C@H](NC(=O)[C@H](CCCCN)NC(=O)[C@H](CC(C)C)NC(=O)[C@@H](NC(=O)[C@@H](N)CCCNC(=N)N)C(C)C)C(=O)N[C@H](C(=O)N[C@@H](CCC(=O)O)C(=O)N1CCC[C@H]1C(=O)N[C@@H](Cc1c[nH]c2ccccc12)C(=O)O)C(C)C
T cell response [SFC] (human donors, allele B*5801): 643 SFC

CC[C@H](C)[C@H](NC(=O)[C@@H](NC(=O)[C@@H]1CCCN1C(=O)[C@@H](N)CO)[C@@H](C)CC)C(=O)N[C@@H](CC(N)=O)C(=O)N[C@@H](CCCNC(=N)N)C(=O)N[C@@H](CCC(=O)O)C(=O)NCC(=O)N[C@@H](CCCCN)C(=O)N[C@H](C(=O)O)C(C)C
T cell response [SFC] [2]: 105 SFC

CC[C@H](C)[C@H](N)C(=O)N[C@@H](CS)C(=O)N[C@@H](CO)C(=O)N[C@@H](C)C(=O)N[C@H](C(=O)N1CCC[C@H]1C(=O)N[C@H](C(=O)N[C@@H](Cc1c[nH]cn1)C(=O)N[C@@H](Cc1c[nH]c2ccccc12)C(=O)O)C(C)C)C(C)C
T cell response [SFC] (human donors, allele B*5801): 305 SFC

CSCC[C@H](NC(=O)[C@H](Cc1c[nH]c2ccccc12)NC(=O)[C@@H]1CCCN1C(=O)[C@@H](N)CC(N)=O)C(=O)N[C@@H](CCC(=O)O)C(=O)N[C@@H](CC(=O)O)C(=O)N[C@@H](CCCCN)C(=O)N[C@H](C(=O)N1CCC[C@H]1C(=O)N[C@H](C(=O)O)C(C)C)[C@@H](C)O
T cell response [SFC] (human donors, allele B*0702): 137 SFC

CC(C)C[C@H](N)C(=O)N[C@@H](Cc1c[nH]c2ccccc12)C(=O)N[C@@H](CCC(=O)O)C(=O)NCC(=O)N[C@@H](CO)C(=O)N1CCC[C@H]1C(=O)NCC(=O)N[C@@H](CCCCN)C(=O)N[C@@H](Cc1ccccc1)C(=O)O
T cell response [SFC] (allele A*2402, Sri Lankan donors): 57 SFC

CSCC[C@H](NC(=O)[C@H](C)NC(=O)CNC(=O)[C@H](CCC(=O)O)NC(=O)[C@@H](N)CCC(N)=O)C(=O)N[C@@H](Cc1c[nH]cn1)C(=O)N[C@H](C(=O)N[C@@H](C)C(=O)N[C@@H](CC(C)C)C(=O)O)[C@@H](C)O [QEGAMHTAL]
T cell response [SFC] [3]: 120 SFC

CC(C)C[C@H](NC(=O)[C@@H](NC(=O)[C@H](C)NC(=O)[C@H](CCC(=O)O)NC(=O)CNC(=O)[C@H](CCC(N)=O)NC(=O)[C@@H](NC(=O)[C@@H]1CCCN1C(=O)[C@@H](N)CS)[C@@H](C)O)[C@@H](C)O)C(=O)O
T cell response [SFC] [1]: 143 SFC

CSCC[C@H](NC(=O)CNC(=O)[C@H](CC(C)C)NC(=O)[C@H](CC(=O)O)NC(=O)[C@H](CCCNC(=N)N)NC(=O)[C@H](CCCCN)NC(=O)[C@@H](NC(=O)[C@@H](N)[C@@H](C)O)[C@@H](C)O)C(=O)N[C@@H](CO)C(=O)N[C@@H](CCCCN)C(=O)O
T cell response [SFC] [4]: 75 SFC

CC[C@H](C)[C@H](NC(=O)[C@H](CC(C)C)NC(=O)[C@H](CC(C)C)NC(=O)[C@@H](NC(=O)[C@H](CCSC)NC(=O)[C@H](CC(C)C)NC(=O)[C@@H](N)Cc1ccccc1)C(C)C)C(=O)N1CCC[C@H]1C(=O)N[C@@H](CCC(=O)O)C(=O)N1CCC[C@H]1C(=O)O
T cell response [SFC] [5]: 98 SFC

CC[C@H](C)[C@H](NC(=O)[C@@H](NC(=O)[C@@H](NC(=O)[C@H](CC(N)=O)NC(=O)[C@H](Cc1c[nH]c2ccccc12)NC(=O)[C@H](Cc1ccccc1)NC(=O)[C@H](CCCCN)NC(=O)CNC(=O)[C@@H]1CCCN1C(=O)[C@@H](N)CO)[C@@H](C)O)[C@@H](C)O)C(=O)O
T cell response [SFC] [2]: 105 SFC

C[C@@H](O)[C@H](NC(=O)[C@@H](N)CC(=O)O)C(=O)N[C@H](C(=O)N1CCC[C@H]1C(=O)N[C@@H](Cc1ccccc1)C(=O)NCC(=O)N[C@@H](CCC(N)=O)C(=O)N[C@@H](CCC(N)=O)C(=O)N[C@@H](CCCNC(=N)N)C(=O)O)[C@@H](C)O
T cell response [SFC] (human donors, allele A*6801): 40 SFC

CC(C)C[C@H](NC(=O)[C@H](Cc1ccc(O)cc1)NC(=O)[C@@H]1CCCN1C(=O)[C@@H](N)C(C)C)C(=O)NCC(=O)N[C@@H](CCCCN)C(=O)N[C@@H](CCCNC(=N)N)C(=O)N[C@@H](CCC(=O)O)C(=O)N[C@@H](CC(=O)O)C(=O)N[C@@H](CCC(N)=O)C(=O)O
T cell response [SFC] (human donors, allele B*0702): 425 SFC

CSCC[C@H](NC(=O)[C@H](CC(C)C)NC(=O)[C@@H](NC(=O)[C@H](CCC(=O)O)NC(=O)[C@@H](N)CC(C)C)[C@@H](C)O)C(=O)N[C@@H](CC(C)C)C(=O)N[C@H](C(=O)N[C@@H](C)C(=O)N[C@@H](CC(C)C)C(=O)N[C@@H](CC(C)C)C(=O)O)C(C)C
T cell response [SFC] [3]: 185 SFC

CSCC[C@H](NC(=O)[C@H](CC(C)C)NC(=O)[C@@H](NC(=O)[C@H](CCC(=O)O)NC(=O)[C@@H](N)CC(C)C)[C@@H](C)O)C(=O)N[C@@H](CC(C)C)C(=O)N[C@H](C(=O)N[C@@H](C)C(=O)N[C@@H](CC(C)C)C(=O)O)C(C)C [LETLMLVAL]
T cell response [SFC] [3]: 112 SFC

CC[C@H](C)[C@H](NC(=O)[C@@H]1CCCN1C(=O)[C@@H](N)CC(=O)O)C(=O)N1CCC[C@H]1C(=O)N[C@@H](Cc1ccc(O)cc1)C(=O)N[C@@H](CC(=O)O)C(=O)N1CCC[C@H]1C(=O)N[C@@H](CCCCN)C(=O)N[C@@H](Cc1ccccc1)C(=O)O
T cell response [SFC] [1]: 77 SFC

CC[C@H](C)[C@H](N)C(=O)N[C@@H](C)C(=O)N[C@@H](CC(N)=O)C(=O)N[C@@H](CCC(N)=O)C(=O)N[C@@H](C)C(=O)N[C@H](C(=O)N[C@H](C(=O)N[C@@H](CC(C)C)C(=O)N[C@@H](CCSC)C(=O)O)C(C)C)[C@@H](C)O
T cell response [SFC] [1]: 220 SFC

CC(C)C[C@H](NC(=O)[C@@H](NC(=O)[C@H](C)NC(=O)[C@H](CCC(=O)O)NC(=O)CNC(=O)[C@H](CCC(N)=O)NC(=O)[C@@H](NC(=O)[C@@H]1CCCN1C(=O)[C@@H](N)CS)[C@@H](C)O)C(C)C)C(=O)O
T cell response [SFC] [1]: 135 SFC

CC[C@H](C)[C@H](NC(=O)[C@@H](NC(=O)[C@H](CC(=O)O)NC(=O)[C@H](CCSC)NC(=O)[C@@H](NC(=O)[C@@H](NC(=O)CNC(=O)[C@H](CCCNC(=N)N)NC(=O)[C@@H]1CCCN1C(=O)[C@@H](N)[C@@H](C)O)[C@@H](C)O)C(C)C)[C@@H](C)CC)C(=O)O
T cell response [SFC] (human donors, allele B*0702): 505 SFC

CSCC[C@H](N)C(=O)N[C@H](C(=O)N[C@@H](CCC(N)=O)C(=O)N[C@@H](CCCCN)C(=O)N[C@@H](C)C(=O)N[C@@H](CCCNC(=N)N)C(=O)N[C@@H](CC(N)=O)C(=O)N[C@@H](C)C(=O)N[C@@H](CC(C)C)C(=O)O)[C@@H](C)O [MTQKARNAL]
T cell response [SFC] [2]: 263 SFC

CC[C@H](C)[C@H](NC(=O)CNC(=O)[C@H](CCC(=O)O)NC(=O)[C@@H]1CCCN1C(=O)[C@@H](N)[C@@H](C)O)C(=O)N[C@H](C(=O)N1CCC[C@H]1C(=O)N[C@@H](CO)C(=O)N[C@@H](CCSC)C(=O)O)[C@@H](C)CC
T cell response [SFC] [2]: 108 SFC
T cell response [SFC] [1]: 295 SFC

CSCC[C@H](NC(=O)[C@H](CCC(N)=O)NC(=O)[C@@H](N)CCCNC(=N)N)C(=O)N[C@@H](CCC(=O)O)C(=O)NCC(=O)N[C@@H](CCC(=O)O)C(=O)NCC(=O)N[C@H](C(=O)N[C@@H](CC(C)C)C(=O)O)C(C)C
T cell response [SFC] (human donors, allele B*1501): 382 SFC

C[C@H](NC(=O)[C@@H]1CCCN1C(=O)[C@@H](N)CC(N)=O)C(=O)N[C@@H](CCC(N)=O)C(=O)N[C@@H](CCC(=O)O)C(=O)N[C@@H](CC(=O)O)C(=O)N[C@@H](CC(=O)O)C(=O)N[C@@H](CCC(N)=O)C(=O)N[C@@H](Cc1ccc(O)cc1)C(=O)O
T cell response [SFC] [1]: 118 SFC

CC[C@H](C)[C@H](NC(=O)[C@H](CCC(=O)O)NC(=O)[C@@H](N)CCSC)C(=O)N[C@H](C(=O)N[C@@H](C)C(=O)N[C@@H](CCC(=O)O)C(=O)N[C@@H](Cc1c[nH]c2ccccc12)C(=O)N[C@@H](CC(C)C)C(=O)N[C@@H](Cc1c[nH]c2ccccc12)C(=O)O)[C@@H](C)O
T cell response [SFC] (human donors, allele B*5801): 27 SFC

CC[C@H](C)[C@H](NC(=O)[C@H](CC(C)C)NC(=O)[C@H](Cc1ccccc1)NC(=O)[C@H](CC(C)C)NC(=O)[C@H](CCSC)NC(=O)[C@H](C)NC(=O)CN)C(=O)N[C@@H](CO)C(=O)NCC(=O)N[C@@H](CCCCN)C(=O)O
T cell response [SFC] [4]: 212 SFC

CC[C@H](C)[C@H](NC(=O)[C@H](C)NC(=O)[C@H](CC(C)C)NC(=O)[C@H](CS)NC(=O)[C@H](CC(C)C)NC(=O)[C@@H](NC(=O)CNC(=O)[C@H](CCSC)NC(=O)[C@@H](NC(=O)[C@@H](N)Cc1ccccc1)[C@@H](C)O)C(C)C)C(=O)O
T cell response [SFC] [5]: 33 SFC

CC[C@H](C)[C@H](NC(=O)CNC(=O)[C@@H](NC(=O)[C@@H](NC(=O)[C@H](C)NC(=O)[C@H](CCSC)NC(=O)[C@@H](N)CCSC)[C@@H](C)O)[C@@H](C)CC)C(=O)N[C@@H](C)C(=O)N[C@@H](CC(C)C)C(=O)O [MMATIGIAL]
T cell response [SFC] [1]: 38 SFC

CC(C)C[C@H](NC(=O)[C@H](CC(C)C)NC(=O)[C@@H](NC(=O)[C@H](C)NC(=O)[C@H](C)NC(=O)[C@@H](NC(=O)[C@H](CC(C)C)NC(=O)[C@@H](N)[C@@H](C)O)[C@@H](C)O)C(C)C)C(=O)N[C@@H](CC(C)C)C(=O)N[C@H](C(=O)O)C(C)C
T cell response [SFC] [5]: 43 SFC
